Test results reported in PubChem BioAssay AID1230 (PCMD, 2008).
This is a selection; strong and weak results do not stand in their true shares. Some tests of the compounds listed are not included; inactive here does not mean inactive elsewhere. Calls of active or inactive are those of the source.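 Rule for the calls: active = signal enhancement of 30% or more; inactive = the rest.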

The chains behind the UniProt entries cited, without tags or fusion partners.
UniProt Q00987, whole entry: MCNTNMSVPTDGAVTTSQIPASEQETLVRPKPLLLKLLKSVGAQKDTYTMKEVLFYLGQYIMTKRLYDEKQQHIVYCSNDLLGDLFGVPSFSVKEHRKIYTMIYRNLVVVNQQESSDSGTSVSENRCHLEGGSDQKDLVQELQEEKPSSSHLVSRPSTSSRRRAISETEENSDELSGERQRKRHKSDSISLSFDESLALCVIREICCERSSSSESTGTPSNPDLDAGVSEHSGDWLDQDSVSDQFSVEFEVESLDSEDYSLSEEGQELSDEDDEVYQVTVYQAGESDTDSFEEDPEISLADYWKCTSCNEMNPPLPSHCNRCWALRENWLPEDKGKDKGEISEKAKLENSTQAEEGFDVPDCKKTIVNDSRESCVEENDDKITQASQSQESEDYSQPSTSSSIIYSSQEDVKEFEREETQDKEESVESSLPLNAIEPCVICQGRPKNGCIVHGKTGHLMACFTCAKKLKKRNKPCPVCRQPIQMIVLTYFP

The compounds below were run against E3 ubiquitin-protein ligase Mdm2 (Homo sapiens) (UniProt Q00987) (assay: increase of MDM2 autoubiquitination reporter luminescence – cell-based, 1536-well, MDM2 E3 ligase inhibitor project, primary screen (AID 1230;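 note: luminescence tracks abundance of the self-degrading MDM2-luciferase fusion protein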)). Conditions: cell-based MDM2 ubiquitination luciferase reporter, 2 h; at 5 µM; stronger effect = higher value; 0 = plate control, 100 = twice control, blank-subtracted.
How it was run: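 Assay system: stable mammalian line carrying autodegrading MDM2–luciferase fusion reporter; Input: 2000 cells in each well; Compound dosing: single-point 5 µM; Schedule: 2 h compound exposure at 37 °C; Signal: SteadyLite luciferase luminescence after 15 min room-temperature reagent incubation; Evaluation: % luminescence enhancement versus blank-corrected plate control mean; Benchmarks: plate controls and plate blanks.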

**Q.** With `C=CCN1CCN(CCOC(=O)C(O)(c2ccccc2)c2ccccc2)CC1` as the compound, how does the signal enhancement read?
**A.** inactive: 3.8%

**Q.** Which signal enhancement does the source give for `CCN1CCCC(OC(=O)C2(O)c3ccccc3C=Cc3ccccc32)C1` (stereo unspecified) here?
**A.** inactive: -19%

**Q.** Which signal enhancement does the source give for `CN(C)C1CCCC1OC(=O)C(O)(c1ccccc1)c1ccccc1` (stereo unspecified) here?
**A.** inactive: -5.23%

**Q.** Which signal enhancement does the source give for `Cc1ccccc1C(=O)NCC1(N2CCCCC2)CCCCC1` here?
**A.** inactive: -25.3%

**Q.** For `CC(C)N1C(=O)CC2(CCN(CCOC(=O)C(O)(c3ccccc3)c3ccccc3)CC2)C1=O`, which signal enhancement is on record?
**A.** inactive: -2.05%

**Q.** How did the signal enhancement turn out when `CCN(CC)CC(C)C(C)OC(=O)C(O)(c1ccccc1)c1ccccc1` (stereo unspecified) was run?
**A.** inactive: -11.4%

**Q.** How did the signal enhancement turn out when `O=C(NCC1(N2CCCCC2)CCCCC1)c1cc([N+](=O)[O-])ccc1Cl` was run?
**A.** inactive: -18%

**Q.** `COc1ccc(Br)c(C(=O)NCC2(N3CCCCC3)CCCCC2)c1` was tested. Which signal enhancement did it give?
**A.** inactive: -11%

**Q.** For `CN(C)c1cccc(C(=O)NCC2(N(C)C)CCCCC2)c1`, which signal enhancement is on record?
**A.** inactive: -9.51%

**Q.** How did the signal enhancement turn out when `O=C(OC1CN2CCC1CC2)C(CO)(c1ccccc1)c1ccccc1` (stereo unspecified) was run?
**A.** inactive: -9.98%

**Q.** `COc1cccc(C(=O)NCC2(N3CCCCC3)CCCCC2)c1` was tested. Which signal enhancement did it give?
**A.** inactive: -1.98%
